Structures are written as SMILES. pKi: −log10 of the molar value.

Sequences of proteins named here, by UniProt entry; tags and fusion partners are left off.
UniProt P31652, whole entry: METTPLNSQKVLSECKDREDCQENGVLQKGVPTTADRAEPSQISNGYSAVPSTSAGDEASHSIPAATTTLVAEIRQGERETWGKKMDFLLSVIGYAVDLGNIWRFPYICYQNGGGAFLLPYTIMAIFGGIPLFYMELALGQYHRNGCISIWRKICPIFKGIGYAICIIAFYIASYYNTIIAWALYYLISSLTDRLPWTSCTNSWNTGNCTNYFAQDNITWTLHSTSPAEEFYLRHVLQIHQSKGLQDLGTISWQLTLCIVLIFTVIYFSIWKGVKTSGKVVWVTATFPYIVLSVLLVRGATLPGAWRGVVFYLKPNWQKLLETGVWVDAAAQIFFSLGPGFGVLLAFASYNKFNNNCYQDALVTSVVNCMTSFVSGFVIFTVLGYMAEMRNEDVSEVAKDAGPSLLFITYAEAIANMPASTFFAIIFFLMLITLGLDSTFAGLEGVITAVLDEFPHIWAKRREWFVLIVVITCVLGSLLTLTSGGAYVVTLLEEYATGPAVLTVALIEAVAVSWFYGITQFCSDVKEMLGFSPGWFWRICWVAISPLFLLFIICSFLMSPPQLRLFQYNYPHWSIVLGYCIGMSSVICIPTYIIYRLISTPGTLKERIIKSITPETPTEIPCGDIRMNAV

This test has as its target Sodium-dependent serotonin transporter (Rattus norvegicus, UniProt P31652). As to the kind of experiment: Inhibition of 5-HT reuptake (SERT) in rat brain synaptosomes. The test is classed as subcellular.

Usually pKi stands for the Ki on a negative log10 scale, so that one unit is a factor of ten. A low value points to a high Ki. For `[11CH3]Sc1ccc([C@@H]2CN3CCC[C@@H]3c3ccccc32)cc1`, the pKi was 9.40.

The values are drawn from ChEMBL document CHEMBL1136006, “New PET imaging agent for the serotonin transporter: [(18)F]ACF (2-[(2-amino-4-chloro-5-fluorophenyl)thio]-N,N-dimethyl-benzenmethanamine)” (J Med Chem, 2002).
